Our source for the CC50 values is patent US20220204476A1, “RNA VIRUS INHIBITOR COMPOUNDS AND USES THEREOF” (The Governors of the University of Alberta, priority 2020, published 2022).

What is called CC50 is the concentration at which the toxic effect on the cells reaches its halfway point.

Structures are written as SMILES.

This data set in a line: Cytotoxicity, CellTiter-Glo luminescent cell viability assay. As to conditions: human (A549) and green monkey (Vero E6). (ATP-based viability assays read luminescence as a measure of living cells.)

The molecule `COc1cc(Cl)cc2[nH]c(C(=O)N[C@@H](CC(C)C)C(=O)N[C@H](C#N)C[C@@H]3CCCNC3=O)cc12` [Compound 68, 6-chloro-N-[(2S)-1-({(1S)-1-cyano-2-[(3S)-2-oxopiperidin-3-yl]ethyl}amino)-4-methyl-1-oxopentan-2-yl]-4-methoxy-1H-indole-2-carboxamide] displayed a half-maximal cytotoxic concentration (CC50) at 24 h of more than 200 µM.
